# Values of other authors, collected in PMC11322411.
# Experiments:
# [1] = target: SMO PKI motif peptide PKI motif (Mus musculus) (UniProt P56726); settings: cited from earlier work
# [2] = target: SMO pCT pCT (Mus musculus) (UniProt P56726); test: SPR; settings: cited from earlier work
substance,measurement,setting,value
PKA-C (from UniProt P05132),Kd,[1],923 nM
same,Kd,[2],752 nM
